Experimental data as given in PubChem BioAssay (NCI).
The list shows a part of the results, in another mix than the full data. Where a structure was tested more than once in an assay, its records may differ in their call. Active and inactive are the calls of the source. Rule as the data show it: active = growth inhibition above about 70%; inactive = the rest.

Assay: NCI Yeast Anticancer Drug Screen. Data for the mlh1 strain (AID 171);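 also: 0% = growth of vehicle-treated control cultures of the same strain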
Details: S. cerevisiae mlh1 strain growth inhibition, active compounds read high
Protocol: Growth inhibition of yeast strains with defined genetic alterations is measured as a screen for potential anti-cancer activity. Selected strains with alterations in DNA damage repair or cell cycle control were exposed to compounds and growth inhibition was measured relative to vehicle treated controls. The strain used in this assay is mlh1

Compound | growth inhibition (at 1.2 µM) | growth inhibition (at 3.7 µM) | growth inhibition (at 11.0 µM) | growth inhibition (at 33.0 µM) | growth inhibition (at 100.0 µM)
O=C1OC(C(Cl)(Cl)Cl)Sc2ccccc21 (stereo not given) | inactive: 0% | inactive: 1% | inactive: 10% | inactive: 42% | active: 75%
N#Cc1cc([N+](=O)[O-])cc([N+](=O)[O-])c1N | inactive: 3% | inactive: 1% | inactive: 18% | inactive: 48% | active: 80%
CN(C)P(=O)(N(C)C)n1c(Nc2ccccc2)nnc1-c1ccccc1 | inactive: -24% | inactive: -2% | inactive: -12% | active: 94% | inactive: 33%
COc1cccc(C[N+](C)(CCCl)CCCl)c1[N+](=O)[O-] | inactive: 32% | inactive: 22% | inactive: 20% | inactive: 26% | inactive: 41%
FC1(F)SC2C(C1(F)F)C1(Cl)C(Cl)=C(Cl)C2(Cl)C1(Cl)Cl (stereo not given) | inactive: 26% | active: 98% | active: 99% | active: 99% | active: 99%
NC(Cc1cnc[nH]1)C(=O)O (stereo not given) | inactive: -11% | inactive: 27% | active: 96% | active: 97% | active: 99%
CC(C)c1nc(Nc2ccccc2)n(P(=O)(N(C)C)N(C)C)n1 | inactive: -42% | inactive: -29% | inactive: -23% | inactive: 33% | active: 91%
O=[N+]([O-])c1cc([N+](=O)[O-])c2nsnc2c1 | inactive: -6% | inactive: 22% | active: 99% | active: 99% | active: 99%
